What was measured:
CaOv cells = assay: Antiproliferative activity of IFN derivatives toward CaOv cells; type: cell-based, human; settings: 1000 U/mL; for anti-proliferative activity: CaOv cells (high sensitivity to IFN); for increase in the index of anti-proliferation activity (IAA): CaOv cells, versus non-acylated IFN
Procedure: (§1) For the synthesis of quasi-living systems on the basis of α-2b-interferon, interferon (IFN) (Biolek, Kharkiv, Ukraine) and succinic and aconite anhydrides (Aldrich-Sigma, USA) were used. The end of the reaction was controlled through changing the molecular weight of the IFN through pulse-gel-electrophoresis in polyacrylamide gel, using non-acylated IFN as a control. […] The modified IFN were cleaned with chromatography on Sephadex G-25 and then preserved at −20° C. Their antiproliferative activity was studied on cells of the CaOv line, which is highly sensitive to interferons in vitro, and on SW-480, a cell line with a low sensitivity to the activity of IFN in vitro. The cells were cultivated in a DMEM medium (Aldrich-Sigma, USA) with the addition of 10% FCS and 50 μg/mL gentamycin (Aldrich-Sigma, USA) with a density of 10^4 cells/cm^2 in 96-well plates (Bayer) at a temperature of 37° C. in an atmosphere of 5% CO2. The cell cultures' sensitivity to IFN was evaluated by the level of slowing the cell growth after treatment with the quasi-living IFN derivatives.
The Index of Anti-proliferative Activity (IAA) of IFN (%) was calculated as a ratio between the number of cells in the experimental well and the number of cells in the control multiplied by 100. The non-specific cytotoxic effect was determined through dyeing the cells with trypan blue incubation after a 24-hour incubation of the cells with IFN derivatives. […] The original titer of non-modified IFN was 2.5×10^3 ME/mL; IFN and its quasi-living derivatives were added to the medium at a dose of 1000 U/mL (0.05 μL/well); the acylated interferons were added in accordance with the calculation of the concentration of the protein. The cells were incubated for 72 hours with interferon. The number of cells was determined using an inverted microscope (Leica, Germany) every twelve hours.

SW-480 cells = assay: Antiproliferative activity of IFN derivatives toward SW-480 cells; type: cell-based, human
Procedure: as §1, with “The cells were cultivated in a DMEM medium (Aldrich-Sigma, USA) with the addition of 10% FCS and 50 μg/mL gentamycin (Aldrich-Sigma, USA) with a density of 10^4 cells/cm^2 in 96-well plates (Bayer) at a temperature of 37° C. in an atmosphere of 5% CO2.” left out
The Index of Anti-proliferative Activity (IAA) of IFN (%) was calculated as a ratio between the number of cells in the experimental well and the number of cells in the control multiplied by 100. The non-specific cytotoxic effect was determined through dyeing the cells with trypan blue incubation after a 24-hour incubation of the cells with IFN derivatives. […] The number of cells was determined using an inverted microscope (Leica, Germany) every twelve hours.

[1] = treatment of disseminated sclerosis, cited from earlier work

Molecule	anti-proliferative activity (CaOv cells)	increase in the index of anti-proliferation activity (IAA) (CaOv cells)	also measured
1-substituted AIF: α-2b-interferon acylated with aconite anhydride, mole ratio 1:1	largest amount of anti-proliferative activity	3.6 times	–
1-substituted SIF: α-2b-interferon acylated with succinic anhydride, mole ratio 1:1	–	3.2 times	–
3-substituted AIF: α-2b-interferon acylated with aconite anhydride, mole ratio 1:3	–	–	anti-proliferative activity (SW-480 cells; SW-480 cells (low sensitivity to IFN), 1000 U/mL): largest amount of anti-proliferative activity; activity level higher than that of the SIF (SW-480 cells; SW-480 cells, 3-substituted AIF versus SIF): 16%
4-substituted AIF: α-2b-interferon acylated with aconite anhydride, mole ratio 1:4	not seen	–	–
beta-interferon: biotechnological drug used in the treatment of disseminated sclerosis (protein, UniProt P01574 22-187, looked up) Interferon beta: MSYNLLGFLQRSSNFQCQKLLWQLNGRLEYCLKDRMNFDIPEEIKQLQQFQKEDAALTIYEMLQNIFAIFRQDSSSTGWNETIVENLLANVYHQINHLKTVLEEKLEKEDFTRGKLMSSLHLKRYYGRILHYLKAKEYSHCAWTIVRVEILRNFYFINRLTGYLRN	–	–	exceeds the placebo in effectiveness by [1]: 8%; effectiveness ([1]; placebo 30%): 38%

— patent publication US20140220556A1, “Method of Design and Synthesis of a New Drug” (priority 2013, published 2014)
